# Measurements from USRE47493E1, “Substituted bicyclic dihydropyrimidinones and their use as inhibitors of neutrophil elastase activity” (Boehringer Ingelheim International GmbH, priority 2014, dated 2019).
# Amino acid sequences for entries named in this document (tags omitted). Residues count along the entry.
# UniProt P08246, 30-267 limits assumed: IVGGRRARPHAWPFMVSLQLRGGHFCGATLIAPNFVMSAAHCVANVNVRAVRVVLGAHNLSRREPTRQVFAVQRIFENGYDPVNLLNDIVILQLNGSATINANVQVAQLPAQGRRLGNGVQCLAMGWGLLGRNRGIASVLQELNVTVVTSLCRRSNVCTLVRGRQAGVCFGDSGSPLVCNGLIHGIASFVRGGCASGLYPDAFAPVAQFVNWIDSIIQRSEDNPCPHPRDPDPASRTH
# Biological target: Human neutrophil elastase (Homo sapiens (Human), UniProt P08246)
# Test: Human Neutrophil Elastase Assay
# Assay type: biochemical
# Conditions: substrate MeOSuc-Ala-Ala-Pro-Val-AMC, pH 7.5
row,IC50,SMILES
1,< 1 nM,CS(=O)(=O)c1cc(C#N)ccc1[C@@H]1C2=C(CCCC2=O)N(c2cccc(C(F)(F)F)c2)C(=O)N1C(=O)N[C@H]1CCC[C@@H]1O
2,< 1 nM,CS(=O)(=O)c1cc(C#N)ccc1[C@@H]1C2=C(CCCC2=O)N(c2cccc(C(F)(F)F)c2)C(=O)N1C(=O)N[C@H]1CC[C@H](O)C1
3,< 1 nM,CS(=O)(=O)c1cc(C#N)ccc1[C@@H]1C2=C(CCCC2=O)N(c2cccc(C(F)(F)F)c2)C(=O)N1C(=O)N[C@H]1CCC[C@H]1O
4,< 1 nM,CS(=O)(=O)c1cc(C#N)ccc1[C@@H]1C2=C(CCCC2=O)N(c2cccc(C(F)(F)F)c2)C(=O)N1C(=O)N[C@H]1CCCC[C@@H]1O
